Data published in PubChem BioAssay AID504832 (National Center for Advancing Translational Sciences (NCATS), 2011).
The entries are a selection whose mix differs from that of the whole data set. Some tests of the compounds listed are not included; inactive here does not mean inactive elsewhere. Inconclusive results are not listed. The source made the active and inactive calls. Calls come from the whole dose curve; as a rule, active = well fitted inhibition curve with a large enough effect; inconclusive = small, poorly fitted or top-dose-only effect, or another doubt; inactive = no such curve, though single readings can be large or run the other way.

Assay: Primary qHTS for delayed death inhibitors of the malarial parasite plastid, 48 hour incubation
Details: P. falciparum luciferase growth in erythrocytes
Text: The goal of this screen is to discover new antimalarial compounds that act by inhibiting the development of the apicoplast in the malarial parasite Plasmodium falciparum. The biochemical processes that make this organelle essential for erythrocytic stage parasites are not well understood. However, antibiotics such as azithromycin and tetracycline, which target the apicoplast translational machinery, have a potent antimalarial effect.
We have developed a cell-based assay that measures parasite growth based on the expression of an integrated copy of a firefly luciferase reporter. To detect small molecules that cause this "delayed death" phenotype, erythrocytes infected with the luciferase-expressing parasites were incubated with compounds for either one or two generations, corresponding to 48 and 96 hours, respectively. […] Growth inhibition is detected by a decrease in luciferase activity. […]
Four microliters of culture medium (RPMI 1640 with 0.5% w/v Albumax (GIBCO), 24 mM sodium bicarbonate and 10 ug/mL gentamycin) were dispensed by a Multi-drop Combi into white solid 1536-well plates (Grenier) and 23 nL compound was added by a pin tool. […] Two microliters of luciferase detection reagent was added and luminescence was detected by a ViewLux (PerkinElmer) reader.
Potency is the fitted concentration of half-maximal effect.

Structure (SMILES)	Potency
COc1ccc(Br)c(C(=O)NCC2(N3CCCCC3)CCCCC2)c1	active: 13.1 µM
